We go through one compound from article PMC6718340 (Archives of biochemistry and biophysics, 2019).

The experiment has as its target abHemO (A. baumannii LAC-4 HemO) (Acinetobacter baumannii, UniProt A0A0D5YK34). The note with it: 1 μM abHemO, 20 mM Tris-HCl pH 8.0, heme 0.1 to 15 μM, ferric heme.

The Kd is the concentration at which binding is half-saturated. In the case of `C=CC1=C(C)C2=Cc3c(C=C)c(C)c4[n]3[Fe]([Cl])[n]3c(c(C)c(CCC(=O)O)c3=CC3=NC(=C4)C(C)=C3CCC(=O)O)=CC1=N2` [heme], the Kd is 430 nM.
